Earlier results, collected in US7186797B2, “Polypeptide conjugates with extended circulating half-lives” (Epix Pharmaceuticals, Inc., priority 2001, dated 2007).

Conditions: unconjugated polypeptide drug, background statement; cited from earlier work

| Substance | t1/2 [h] |
| --- | --- |
| interferon α-2b: commercially important polypeptide-based drug currently in use | 2 |
| interferon β: commercially important polypeptide-based drug currently in use | 1 |
